Reference: PubChem BioAssay (EPA / NIEHS)
The list shows a part of the results, in another mix than the full data. The source made the active and inactive calls. How the source made its calls, unless noted: active means hit-call score of the fitted dose curve at least 0.9, where 1 is the maximum; inactive means score below 0.9.

Sequences of proteins named here, by UniProt entry; tags and fusion partners are left off.
UniProt P33261, whole entry: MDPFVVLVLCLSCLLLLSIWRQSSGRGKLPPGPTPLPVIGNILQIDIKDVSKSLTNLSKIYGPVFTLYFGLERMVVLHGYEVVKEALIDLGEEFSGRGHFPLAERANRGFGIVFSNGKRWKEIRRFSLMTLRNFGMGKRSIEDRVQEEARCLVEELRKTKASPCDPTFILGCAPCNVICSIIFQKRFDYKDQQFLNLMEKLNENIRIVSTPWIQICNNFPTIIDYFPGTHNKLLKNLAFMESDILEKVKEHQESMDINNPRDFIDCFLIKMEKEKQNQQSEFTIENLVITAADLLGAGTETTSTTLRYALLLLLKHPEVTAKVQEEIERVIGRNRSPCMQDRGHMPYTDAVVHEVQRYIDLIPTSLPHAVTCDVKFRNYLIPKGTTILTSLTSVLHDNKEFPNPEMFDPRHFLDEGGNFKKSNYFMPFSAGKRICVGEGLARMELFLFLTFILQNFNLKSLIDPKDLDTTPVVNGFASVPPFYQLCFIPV
UniProt P19838, whole entry: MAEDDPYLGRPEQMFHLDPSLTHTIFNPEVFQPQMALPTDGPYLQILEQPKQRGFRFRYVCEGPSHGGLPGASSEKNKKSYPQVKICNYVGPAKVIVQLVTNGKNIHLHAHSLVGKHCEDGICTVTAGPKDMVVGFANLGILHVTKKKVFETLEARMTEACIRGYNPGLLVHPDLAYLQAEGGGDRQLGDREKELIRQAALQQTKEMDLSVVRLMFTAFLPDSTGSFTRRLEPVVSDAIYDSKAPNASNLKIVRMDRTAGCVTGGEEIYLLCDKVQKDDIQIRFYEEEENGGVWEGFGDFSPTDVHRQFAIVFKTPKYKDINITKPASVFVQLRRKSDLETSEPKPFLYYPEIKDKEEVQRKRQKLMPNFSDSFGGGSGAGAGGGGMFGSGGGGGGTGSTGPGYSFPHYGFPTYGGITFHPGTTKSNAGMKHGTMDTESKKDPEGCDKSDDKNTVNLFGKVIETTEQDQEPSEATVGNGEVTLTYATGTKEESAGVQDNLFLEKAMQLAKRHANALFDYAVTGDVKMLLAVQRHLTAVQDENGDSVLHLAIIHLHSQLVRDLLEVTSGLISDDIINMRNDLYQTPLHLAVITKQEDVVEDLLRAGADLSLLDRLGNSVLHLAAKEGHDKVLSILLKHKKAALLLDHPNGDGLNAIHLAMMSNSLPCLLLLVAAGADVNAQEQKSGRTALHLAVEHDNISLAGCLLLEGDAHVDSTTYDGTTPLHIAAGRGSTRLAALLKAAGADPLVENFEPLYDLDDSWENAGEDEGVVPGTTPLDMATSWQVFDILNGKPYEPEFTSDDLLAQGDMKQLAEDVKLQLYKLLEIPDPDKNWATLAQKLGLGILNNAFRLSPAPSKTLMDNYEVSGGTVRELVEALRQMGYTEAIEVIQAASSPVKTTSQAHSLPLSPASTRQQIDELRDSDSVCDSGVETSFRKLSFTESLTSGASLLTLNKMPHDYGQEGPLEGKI
UniProt Q16236, whole entry: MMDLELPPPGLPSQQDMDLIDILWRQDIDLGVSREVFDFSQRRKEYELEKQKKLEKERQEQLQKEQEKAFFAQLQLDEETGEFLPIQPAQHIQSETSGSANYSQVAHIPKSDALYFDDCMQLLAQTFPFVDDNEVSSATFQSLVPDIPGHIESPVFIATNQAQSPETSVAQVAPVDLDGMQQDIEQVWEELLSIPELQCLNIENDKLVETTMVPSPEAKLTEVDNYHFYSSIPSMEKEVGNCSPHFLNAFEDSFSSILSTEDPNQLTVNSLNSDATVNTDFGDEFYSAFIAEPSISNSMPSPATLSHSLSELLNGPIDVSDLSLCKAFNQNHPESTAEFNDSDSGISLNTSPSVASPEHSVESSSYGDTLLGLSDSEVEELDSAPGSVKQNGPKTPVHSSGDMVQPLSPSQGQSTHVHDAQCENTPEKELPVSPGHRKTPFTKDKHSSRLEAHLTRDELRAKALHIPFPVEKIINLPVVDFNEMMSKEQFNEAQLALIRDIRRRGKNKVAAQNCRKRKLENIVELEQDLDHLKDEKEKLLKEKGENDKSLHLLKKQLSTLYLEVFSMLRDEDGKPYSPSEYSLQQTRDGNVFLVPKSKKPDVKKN

What was measured:
[1] = read-out: Cytochrome P450 2C19 (Homo sapiens) (UniProt P33261); test: LTEA_HepaRG_CYP2C19: Life Technologies and Expression Analysis (LTEA) Assay for CYP2C19 using HepaRG (AID 2283482); settings: actives raise or lower the signal; mRNA level, 48 h
In short: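 HepaRG, 48 h chemical exposure, 8-pt half-log series from 100 uM in 0.5% DMSO, duplicates. Readout: CYP2C19 mRNA by TaqMan qRT-PCR, housekeeping-normalized. Bidirectional fit vs DMSO baseline; phenobarbital 1mM as induction control.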

CYP2E1 (gene 1571) = test: LTEA_HepaRG_CYP2E1: Life Technologies and Expression Analysis (LTEA) Assay for CYP2E1 using HepaRG (AID 2283485); settings: actives raise or lower the signal; mRNA level, 48 h
In short: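 HepaRG cells in serum-free induction medium exposed 48 h to test chemicals, 8 half-log concentrations up to 100 uM in 0.5% DMSO, duplicate. CYP2E1 mRNA by qRT-PCR, normalized to ACTB, GAPDH, POLR2A; bidirectional fit versus DMSO.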

[2] = read-out: growth arrest and DNA damage 45 (GADD45G), GADD45G (gene 10912); test: LTEA_HepaRG_GADD45G: Life Technologies and Expression Analysis (LTEA) Assay for growth arrest and DNA damage 45 (GADD45G) using HepaRG (AID 2283499); settings: actives raise or lower the signal; mRNA level, 48 h
In short: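 HepaRG, 48 h exposure, top 100 uM, half-log 8-point series, 0.5% DMSO vehicle, duplicates. Readout: GADD45G transcript by qRT-PCR (Fluidigm array), housekeeping-normalised (ACTB/GAPDH/POLR2A). Bidirectional curve fit vs DMSO baseline.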

[3] = read-out: Insulin-like growth factor-binding protein 1 (IGFBP1), IGFBP1 (gene 3484); test: LTEA_HepaRG_IGFBP1: Life Technologies and Expression Analysis (LTEA) Assay for Insulin-like growth factor-binding protein 1 (IGFBP1) using HepaRG (AID 2283508); settings: actives raise or lower the signal; mRNA level, 48 h
In short: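 qRT-PCR mRNA read-out (TaqMan, Fluidigm array), normalised to three housekeeping genes; HepaRG cells, 48 h exposure, 8-pt half-log series from 100 uM, 0.5% DMSO vehicle; bidirectional curve fit vs DMSO baseline.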

[4] = read-out: Interleukin 6 (IL6), IL6 (gene 3569); test: LTEA_HepaRG_IL6: Life Technologies and Expression Analysis (LTEA) Assay for Interleukin 6 (IL6) using HepaRG (AID 2283509); settings: actives raise or lower the signal; mRNA level, 48 h
In short: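 HepaRG cells exposed in duplicate for 48 h to eight half-log concentrations, top 100 uM, in 0.5% DMSO serum-free induction medium. mRNA measured by qRT-PCR, normalized to ACTB, GAPDH and POLR2A. Bidirectional fit versus DMSO.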

[5] = read-out: Interleukin 6 Receptor (IL6R), IL6R (gene 3570); test: LTEA_HepaRG_IL6R: Life Technologies and Expression Analysis (LTEA) Assay for Interleukin 6 Receptor (IL6R) using HepaRG (AID 2283510); settings: actives raise or lower the signal; mRNA level, 48 h;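 further: TaqMan qRT-PCR signal normalized to ACTB GAPDH and POLR2A housekeeping genes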
In short: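 Differentiated human HepaRG cells, plated 48 h then switched to serum-free induction medium, were dosed in duplicate for 48 h at eight half-log concentrations up to 100 uM in 0.5% DMSO. IL6R mRNA quantified by qRT-PCR, normalized to ACTB/GAPDH/POLR2A; bidirectional fit versus DMSO.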

[6] = read-out: matrix metalloproteinase-10 (MMP10), MMP10 (gene 4319); test: LTEA_HepaRG_MMP10: Life Technologies and Expression Analysis (LTEA) Assay for matrix metalloproteinase-10 (MMP10) using HepaRG (AID 2283517); settings: actives raise or lower the signal; mRNA level, 48 h
In short: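 Differentiated HepaRG cells in serum-free induction medium exposed 48 h in duplicate to 8-point half-log series up to 100 uM in 0.5% DMSO. mRNA quantified by qRT-PCR, normalised to ACTB, GAPDH, POLR2A; bidirectional fit versus DMSO.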

[7] = read-out: Nuclear factor NF-kappa-B p105 subunit (Homo sapiens) (UniProt P19838); test: LTEA_HepaRG_NFKB1: Life Technologies and Expression Analysis (LTEA) Assay for Nuclear Factor Kappa B Subunit 1 (NFKB1) using HepaRG (AID 2283521); settings: actives raise or lower the signal; mRNA level, 48 h
In short: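 HepaRG, 48 h exposure; 8-pt half-log series from 100 uM in 0.5% DMSO; duplicates. Readout: NFKB1 mRNA by qRT-PCR (Fluidigm arrays), housekeeping-normalized. Gain/loss fit vs DMSO baseline.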

[8] = read-out: Protein phosphatase 2A (PPP2R4), PTPA (gene 5524); test: LTEA_HepaRG_PPP2R4: Life Technologies and Expression Analysis (LTEA) Assay for Protein phosphatase 2A (PPP2R4) using HepaRG (AID 2283522); settings: actives raise or lower the signal; mRNA level, 48 h
In short: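 Differentiated HepaRG cells in serum-free induction medium were exposed in duplicate for 48 h to eight concentrations, top 100 uM with half-log dilutions, in 0.5% DMSO. PPP2R4 mRNA was quantified by TaqMan qRT-PCR, normalized to ACTB, GAPDH and POLR2A.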

[9] = read-out: Phosphatase and tensin (PTEN), PTEN (gene 5728); test: LTEA_HepaRG_PTEN: Life Technologies and Expression Analysis (LTEA) Assay for Phosphatase and tensin (PTEN) using HepaRG (AID 2283523); settings: actives raise or lower the signal; mRNA level, 48 h
In short: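 HepaRG cells, 48 h after plating, exposed in duplicate for 48 h in serum-free induction medium to 8 half-log concentrations up to 100 uM (0.5% DMSO). PTEN mRNA by qRT-PCR, normalized to ACTB, GAPDH, POLR2A; bidirectional fit versus DMSO.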

[10] = read-out: NAD(P)H dehydrogenase [quinone] 1 (NQO1), NQO1 (gene 1728); test: LTEA_HepaRG_NQO1: Life Technologies and Expression Analysis (LTEA) Assay for NAD(P)H dehydrogenase [quinone] 1 (NQO1) using HepaRG (AID 2283526); settings: actives raise or lower the signal; mRNA level, 48 h
In short: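 Differentiated HepaRG cells, plated 48 h and then switched to serum-free induction medium, were exposed in duplicate for 48 h to 8-point half-log concentrations up to 100 uM in 0.5% DMSO. mRNA measured by qRT-PCR, normalized to ACTB, GAPDH, POLR2A; bidirectional fit versus DMSO.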

[11] = read-out: Nuclear factor erythroid 2-related factor 2 (Homo sapiens) (UniProt Q16236); test: LTEA_HepaRG_NFE2L2: Life Technologies and Expression Analysis (LTEA) Assay for Nuclear factor erythroid 2-related factor 2 (NFE2L2) Transcription Factor using HepaRG (AID 2283527); settings: actives raise or lower the signal; mRNA level, 48 h
In short: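 Differentiated human HepaRG cells, serum-free induction medium, exposed 48 h in duplicate to eight half-log concentrations up to 100 uM in 0.5% DMSO. NFE2L2 mRNA by Fluidigm TaqMan qRT-PCR, normalised to ACTB, GAPDH, POLR2A; bidirectional change versus DMSO.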

[12] = read-out: UDP glucuronosyltransferase (UGT1A6), UGT1A6 (gene 54578); test: LTEA_HepaRG_UGT1A6: Life Technologies and Expression Analysis (LTEA) Assay for UDP glucuronosyltransferase (UGT1A6) using HepaRG (AID 2283539); settings: actives raise or lower the signal; mRNA level, 48 h
In short: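 qRT-PCR readout of UGT1A6 mRNA (normalized to ACTB/GAPDH/POLR2A) in differentiated HepaRG cells after 48 h chemical exposure; 8 concentrations, top 100 uM, half-log steps, 0.5% DMSO. Bidirectional curve fit relative to DMSO baseline.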

[13] = read-out: X-box binding protein 1 (XBP1), XBP1 (gene 7494); test: LTEA_HepaRG_XBP1: Life Technologies and Expression Analysis (LTEA) Assay for X-box binding protein 1 (XBP1) using HepaRG (AID 2283540); settings: actives raise or lower the signal; mRNA level, 48 h
In short: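 HepaRG, 48 h exposure, 8-pt half-log CRC top 100 uM, 0.5% DMSO vehicle, duplicates. Readout: TaqMan qRT-PCR of XBP1 mRNA, housekeeping-normalised (ACTB/GAPDH/POLR2A); bidirectional fit vs DMSO baseline.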

[14] = LTEA_HepaRG_LDH_cytotoxicity: Cytotoxicity Assessment in the Life Technologies and Expression Analysis (LTEA) Assay (AID 2283563; active means hit-call score of the fitted dose curve at least 0.9, where 1 is the maximum;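 further: LDH activity released into spent culture medium as a marker of cell death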)
In short: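 HepaRG (human liver line), 48 h exposure, 8-pt half-log series from 100 uM, 0.5% DMSO vehicle, duplicates. Read-out: LDH in spent medium. Positive-direction fit vs DMSO baseline.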

Measured: AC50

Cc1cc([N+](=O)[O-])cc([N+](=O)[O-])c1O
active: [1] 12.9 µM | CYP2E1 (gene 1571) 6.09 µM | [2] 32.2 µM | [3] 61.7 µM | [4] 17.6 µM | [5] 12.2 µM | [6] 17.9 µM | [7] 11.9 µM | [8] 12.4 µM | [9] 12.6 µM | [10] 6.51 µM | [11] 11.9 µM | [12] 12.8 µM | [13] 12.4 µM | [14] 29.6 µM
